Results as given in patent US11884734B2, “Anti-MET antibodies and methods of use thereof” (Celldex Therapeutics, Inc., priority 2015, dated 2024).

Molecular target: T1, cell surface expressed MET (Homo sapiens, UniProt P08581)
T1 construct: cell lines expressing wild-type MET such as A549 and U87MG cells; endogenous in cells; host or cells: A549
Assay: FACS competition with Alexa-647-labeled Ab235 on A549 cells
Type: binding
Details: unlabeled antibody against Alexa-647-labeled Ab235
Description: Antibodies were labeled with Alexa 647 (Invitrogen) according to the manufacturer's instructions. A549 cells were removed from T175 cells with 10 mL of 2 mM EDTA in PBS and the flask was rinsed with 5 mL of PBS. The cells were spun down at 1,200 RPM for 3 minutes. The cells were resuspended in pre-chilled FACS buffer and the cells were counted. The cells were then diluted to 1×10^6 cells/mL and incubated in FACS buffer on ice for 1 hour. 100 μL of cells were transferred to wells of U-Bottom 96 well plate and cells were pelleted at 1,200 rpm for 3 minutes and the buffer was discarded. The antibodies (600 nM initial concentration) were diluted in FACS buffer and Alexa-647-labeled antibodies were diluted to a final concentration of 6 nM. 25 μL of the diluted 6 nM Alexa-647-labeled antibody, and 25 μL of the unlabeled diluted antibody at varying concentrations was added to each well and the cells were incubated on ice for 4 hours to allow antibody binding to reach equilibrium. The cells were pelleted at 1,200 rpm for 3 minutes and the buffer was discarded. Next, the cells were washed with 200 μL of FACS buffer four times (spin at 1,200 rpm for 3 minutes at 4° C.). […] The mean fluorescence intensity of each point was plotted using specific binding program with GraphPad Prism software, and binding affinity was calculated.

inhibition of the binding of labeled Ab235 to cell surface expressed MET: did not inhibit
B1: Ab240: control anti-MET antibody that binds the IgG domains of MET; VL SEQ ID NO: 62, VH SEQ ID NO: 71 (antibody, V domains shown)
VH: QVQLKESGPGLVQPSQTLSLTCSVSGLSLTTNSVHWIRQPPGRGLEWMGVIWGDGSTDYNSALKSRLTISRDTSRSQVFLKMNSLQTDDTAIYFCARDPYQNYFDYWGQGVKVTVSS
VL: DIQMTQTPFYMPASLGERVTISCRASQGISKYLNWYQQKPDGTIKTLIYYTSNLQSGVPSSALKSRLTISRDTSRSQVFLKMNSLQTDDTAIYFCARDPYQNYFDYWGQGVKVTVSS
